{"source": "patent US9827212B2", "about": "“Compositions and methods for treating asthma and other lung diseases” (THE TRUSTEES OF THE UNIVERSITY OF PENNSYLVANIA, priority 2010, dated 2017)", "key": {"[1]": {"tested_on": "naïve mice challenged with methacholine", "experiment": "Invasive lung function (FlexiVent), methacholine challenge, naïve mice", "assay_type": "in vivo", "procedure": "(§1) Lung resistance, compliance, elastance, tissue damping, tissue elastance, and airway resistance were recorded using the FlexiVent system (SCIREQ Scientific Respiratory Equipment Inc). The FlexiVent System Overview is shown in FIG. 1B: FlexiVent is a modular, multi-functional device that performs both mechanical ventilation and detailed measurements of respiratory mechanics in subjects.\nThe mice were anesthetized by an I.P. injection of a Ketamine (100 mg/kg) and Xylazine (20 mg/kg) mixture. After anesthesia, a half centimeter incision was made from the rostal to caudal direction; the flap of skin was retracted and the connective tissue was dissected away, and the trachea was exposed. The trachea was then cannulated between the second and third cartilage rings with a blunt-end stub adapter. The cannula was secured with suture. The mice were next connected to the Flexivent system. All spontaneous respirations were stopped with an intramuscular injection of Pancuronium Bromide (3 mg/kg) and the mice were then mechanically ventilated at respiratory rate of 140 beats/per minute with 0.25 ml of tidal volume. The Flexivent system then briefly interrupted the mechanical ventilation to apply a test signal, or perturbation to measure the respiratory mechanics. The respiratory mechanics were then calculated from the data collected while the perturbation was applied. […]"}, "[2]": {"tested_on": "mice sensitized and challenged with Aspergillus fumigatus (AF)", "experiment": "Invasive lung function (FlexiVent), methacholine challenge, Aspergillus fumigatus sensitized and challenged mice", "assay_type": "in vivo", "settings": "TSA 0.6 mg/kg i.p., dexamethasone 2.5 mg/kg i.p.", "procedure": "Mice were sensitized by intraperitoneal (I.P.) injections of 20 μg allergen, a protein extract of the ubiquitous, airborn fungus, Aspergillus fumigatus (AF), (Bayer Pharmaceuticals), in 100 μl PBS solution containing 2 mg of alum (Imject Alum, Pierce) on days 0 and 14 and challenged on days 25, 26, and 27 with 30 μl of Af extract in PBS (25 μg) intranasally (i.n.) (FIG. 1).\nas §1\nThe mice were anesthetized by an I.P. injection of a Ketamine (100 mg/kg) and Xylazine (20 mg/kg) mixture. After anesthesia, a half centimeter incision was made from the rostal to caudal direction; the flap of skin was retracted and the connective tissue was dissected away, and the trachea was exposed. The trachea was then cannulated between the second and third cartilage rings with a blunt-end stub adapter. The cannula was secured with suture. The mice were next connected to the Flexivent system. […] The respiratory mechanics were then calculated from the data collected while the perturbation was applied. […]"}}}
{"smiles": "CC(/C=C/C(=O)NO)=C\\[C@@H](C)C(=O)c1ccc(N(C)C)cc1", "note": "[TSA, Trichostatin A]", "values": [{"measurement": "lung resistance to methacholine challenge relative to baseline", "setting": "[1]; TSA 0.6 mg/kg i.p.", "value": "below baseline"}, {"measurement": "Emax of airway (lung) resistance in response to methacholine", "setting": "[1]; TSA 0.6 mg/kg i.p. in DMSO, dexamethasone 2.5 mg/kg i.p.", "value": 1.0, "unit": "cmH2O/mL"}, {"measurement": "Emax of airway resistance in response to methacholine", "setting": "[2]", "value": 6, "unit": "cmH2O/mL"}]}
